The numbers were not newly measured in paper PMC10673624 (Current research in chemical biology, 2023), which cites them from elsewhere.

Protein sequences, listed by entry. Tags and fused reporters are not part of them. Lines headed by an entry give the natural chain unless they say otherwise; changes in a name come on top.
UniProt P49761: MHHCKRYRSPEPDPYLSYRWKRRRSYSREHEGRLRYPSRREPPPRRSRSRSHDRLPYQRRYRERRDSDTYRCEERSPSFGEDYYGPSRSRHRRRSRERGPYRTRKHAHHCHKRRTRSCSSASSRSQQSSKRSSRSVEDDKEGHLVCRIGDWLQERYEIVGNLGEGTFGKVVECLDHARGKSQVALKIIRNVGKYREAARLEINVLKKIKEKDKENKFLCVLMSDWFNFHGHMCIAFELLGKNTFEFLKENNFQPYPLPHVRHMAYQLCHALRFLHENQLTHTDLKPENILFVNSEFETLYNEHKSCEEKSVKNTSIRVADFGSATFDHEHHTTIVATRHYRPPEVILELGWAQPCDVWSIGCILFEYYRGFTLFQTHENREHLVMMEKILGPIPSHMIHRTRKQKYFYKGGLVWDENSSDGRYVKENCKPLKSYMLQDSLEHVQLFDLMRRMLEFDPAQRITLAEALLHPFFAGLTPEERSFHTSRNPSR

Each structure is given as a SMILES string.

For the series, the target named is CLK3 (Homo sapiens, UniProt P49761). The note with it: read-out: CLK Activities (IC50 nM), ref Nemec et al., 2019; cited from earlier work.

The term IC50 denotes the concentration that inhibits the measured activity by half. For `Cn1cc(-c2ccc3occ(-c4cccc(-c5ccncc5)c4)c3n2)cn1` [Compound 1], the IC50 is 12 nM.
